Series [1] can be described thus: Dissociation constant, pKa of the compound.
Series [2] concerns Escherichia coli. The experiment in a line: Induction of sensitization to irradiation in Escherichia coli AB1157 under oxic condition assessed as reduction in colony formation at 1 mM measured after irradiation. As to conditions: in vivo, 1000 µM. The class given is organism-based.
In series [3] the test system is Escherichia coli. The experiment in a line: Antimicrobial activity against Escherichia coli AB1157 assessed as reduction in colony formation at 1 mM. The class given is organism-based. The following applies: in vivo, 1000 µM.

One may read the pKa as the pH at which an ionisable group is half protonated. Take `O=[N+]([O-])c1cnc([N+](=O)[O-])[nH]1`: the pKa in series [1] is 2.86. The values for the Activity result with Escherichia coli [2] and in the series on Escherichia coli [3] were “Toxic” and “Non-toxic”, respectively.

The values above are taken from ChEMBL document CHEMBL3227964 (J Med Chem, 1979).
